# From paper PMC12815673
# Target: mGFP-hSERT (human) (UniProt P31645)
# Experiment: single-molecule brightness analysis (TOCCSL, thinning out clusters while conserving stoichiometry of labeling); mGFP-hSERT in the bottom plasma membrane of cells, TIRF, room temperature, 15 s recovery after photobleaching; reports only on mobile molecules; control cells and cells depleted of cholesterol with 10 mM MβCD
substance,measurement,value
mGFP-hSERT (from UniProt P31645 1-630) (natural protein; other documents disagree on this pair),stoichiometry N,< 4
